## Antibody variant affinities, Ab-95 light chain, assay 2

From the AlphaSeq antibody data of Engelhart et al. 2022 (doi:10.1038/s41597-022-01779-4), copy in the FLAb collection.

Antigen: PDVDLGDISGINAS, a 14-residue peptide of the SARS-CoV-2 spike HR2 region.

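The parent was found by panning a naive human phage display library on the peptide. Library AAYL52 holds single substitutions and randomly drawn double and triple substitutions in the CDRs. Affinity was read by AlphaSeq, a pooled yeast mating assay with surface-displayed partners. Binding brings cells together so that they mate, and sequencing counts the barcode pairs among the diploids. Each replicate has its own calibration line, from reference interactions of the BCL2 family. There are three technical replicates.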

Each scFv is VH, a (GGGGS)3 linker, VL, as in the parent Ab-95, and differs from it in the CDRs of the light chain only.
VH: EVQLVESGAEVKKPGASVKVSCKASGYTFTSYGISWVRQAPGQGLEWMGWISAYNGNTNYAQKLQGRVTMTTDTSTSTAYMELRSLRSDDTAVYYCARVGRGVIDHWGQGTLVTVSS
VL: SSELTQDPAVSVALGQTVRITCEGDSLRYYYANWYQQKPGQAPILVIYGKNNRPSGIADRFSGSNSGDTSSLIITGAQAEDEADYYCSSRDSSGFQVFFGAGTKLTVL

Variants are written as CDR1, CDR2 and CDR3 of the light chain (limits as in the source). Parent: EGDSLRYYYAN, GKNNRPS, SSRDSSGFQVF.
Values are log10 of the apparent Kd in nM; lower means stronger binding.
Replicates are averaged; those with no signal do not enter the mean.
"nd" means that the variant was in the library but no mating with the target was seen in any replicate; the authors take this as a sign of poor binding, and no number exists.

For EGVSLRYYYAN | GMNDRPS | SSRDSSGFQVF, the assay gave 3.42 (3 of 3 replicates; controls 1 of 9).
For EGDSLRYYYAN | GKNNRPS | QSRMNSGFQVF, the assay gave 2.87 (3 of 3 replicates; controls 0 of 9).
For EGDYLRYYYAN | GKNERPS | SSRDSSGFQTF, the assay gave 3.87 (3 of 3 replicates; controls 4 of 9).
For EGDSLRYYYSN | GKNNRWS | SSRDSSGFCVF, the assay gave 3.55 (3 of 3 replicates; controls 4 of 9).
For EGDSLRYYYAN | GKNNRPT | SSVDSSGFQVE, the assay gave 2.59 (3 of 3 replicates; controls 2 of 9).
For EGDSLRYYYAN | GKNNRPS | SSNDSDGFQVF, the assay gave 4.55 (2 of 3 replicates; controls 2 of 9).
For EGDSLRYYNAN | GKNNRPS | SSRDLSGPQVF, the assay gave 1.70 (3 of 3 replicates; controls 3 of 9).
For EGDLLRYYYAN | GKNNRPS | SSRDSSGSQVF, the assay gave 4.59 (2 of 3 replicates; controls 3 of 9).
For EMDSLRYYYAN | GKNNRPS | SSRDDKGFQVF, the assay gave 4.85 (2 of 3 replicates; controls 4 of 9).
For EEDSLRYYYAN | GKNNRKS | SSHDSSGFQVF, the assay gave 4.21 (1 of 3 replicates; controls 3 of 9).
For EWQSLRYYYAN | GKNNRPS | SSRDSSGIQVF, the assay gave 4.06 (1 of 3 replicates; controls 3 of 9).
For EGDSLRYYYAN | GKNNRPS | NSRDSYGKQVF, the assay gave 3.57 (3 of 3 replicates; controls 1 of 9).
For PGDSLRYYYAN | GKNNRES | SSRDSSSFQVF, the assay gave nd (0 of 3 replicates; controls 1 of 9).
For EGKSLRYYYAN | GKNNRPS | SSQDSSGFPVF, the assay gave 2.70 (3 of 3 replicates; controls 5 of 9).
For EGDSLRYYYAF | GKNNRPS | SSRDSSGFWVI, the assay gave 3.92 (2 of 3 replicates; controls 2 of 9).
For EGDSLRYYYRP | GKGNRPS | SSRDSSGFQVF, the assay gave nd (0 of 3 replicates; controls 1 of 9).
For ESDSLRYYYAN | GKNNRPS | SSRDSSGCQFF, the assay gave 3.24 (1 of 3 replicates; controls 2 of 9).
For EGDSDRYYYAN | GKNNAPS | SSRDSHGFQVF, the assay gave 4.09 (1 of 3 replicates; controls 0 of 9).
For EGDSYRYQYAN | GDNNRPS | SSRDSSGFQVF, the assay gave 1.27 (3 of 3 replicates; controls 2 of 9).
For EWDSIRYYYAN | GKNNRPS | STRDSSGFQVF, the assay gave 4.48 (1 of 3 replicates; controls 2 of 9).
For EGDSLRYYYNN | GKNNRPS | SSRDSSGFYKF, the assay gave nd (0 of 3 replicates; controls 0 of 9).
For EGDSQRYYYAN | GKNNRPS | SSRDSGGFQLF, the assay gave 3.67 (3 of 3 replicates; controls 4 of 9).

Second part, the sequence after the result:

Read-out 3.35 (1 of 3 replicates; controls 3 of 9), from EGDSLRYYYAV | SKNNRPS | QSRDSSGFQVF.
Read-out 1.95 (3 of 3 replicates; controls 2 of 9), from EGDQLRYYEAN | GKNNRPS | SSRDSSGFQVF.
Read-out 4.14 (3 of 3 replicates; controls 2 of 9), from EGDSLFYYYAN | GKNNRPS | SGRDSSGFVVF.
Read-out 3.12 (2 of 3 replicates; controls 2 of 9), from EGDSLPYYYAN | GKNNRYS | SSRDSSGQQVF.
Read-out 3.17 (3 of 3 replicates; controls 1 of 9), from EGDSLRYYYAS | GKNNRPD | SSRDYSGFQVF.
Read-out 2.36 (3 of 3 replicates; controls 3 of 9), from EGISLRYYYAN | GKNNRGS | SSRDSSGFQVF.
Read-out 4.40 (3 of 3 replicates; controls 3 of 9), from EGDSLRYYYAN | GKNNRFS | ESVDSSGFQVF.
Read-out 4.89 (3 of 3 replicates; controls 0 of 9), from EGDSLRYYNAN | PKNNRPS | SSRDSGGFQVF.
Read-out 0.70 (3 of 3 replicates; controls 2 of 9), from EGDSLRFQYAN | GKNIRPS | SSRDSSGFQVF.
Read-out 3.71 (1 of 3 replicates; controls 3 of 9), from EGDSARYYYAN | GKNNRPS | SSRPSSGFQKF.
Read-out 4.31 (1 of 3 replicates; controls 2 of 9), from EGDSMRYYYAN | GKNNRPS | MSRASSGFQVF.
Read-out 4.34 (2 of 3 replicates; controls 1 of 9), from EGHSSRYYYAN | GKNNRPS | SSRDSSGFTVF.
Read-out 3.86 (1 of 3 replicates; controls 2 of 9), from EGDSLRYYYAT | GQNNRPS | SSRDWSGFQVF.
Read-out 4.07 (1 of 3 replicates; controls 2 of 9), from EDDSLRYYYAN | FKNNRPS | SSRDSSGFQVK.
Read-out 3.52 (3 of 3 replicates; controls 2 of 9), from EGDSLFYYYAW | GKNVRPS | SSRDSSGFQVF.
Read-out 2.91 (3 of 3 replicates; controls 1 of 9), from EGDSLRYYYPN | GKNNRPS | SSRDSSVFQVV.
Read-out 3.61 (3 of 3 replicates; controls 5 of 9), from EGDSLPYTYFN | GKNNRPS | SSRDSSGFQVF.
Read-out 4.26 (3 of 3 replicates; controls 4 of 9), from EMDSLRYYYAN | GKNNRPI | SSRQSSGFQVF.
Read-out 3.54 (2 of 3 replicates; controls 0 of 9), from EGDSLRYYYAN | GKINRPS | YSRDESGFQVF.
Read-out 2.04 (3 of 3 replicates; controls 4 of 9), from EGDSLRYYYAN | GKNNRPS | SSRMSSNFQVF.
Read-out 2.79 (3 of 3 replicates; controls 0 of 9), from EGDGLRYYYAN | GKNNRPS | SSRDSSGQQVW.
Read-out 4.41 (1 of 3 replicates; controls 5 of 9), from EGDSLRYYYCN | GKCNRPS | QSRDSSGFQVF.
Read-out 4.33 (1 of 3 replicates; controls 2 of 9), from EGDSLRYYYAN | SQNNRPS | SSRDTSGFQVF.

Excerpt, the final 4 entries:

With EGDSLRYYYAN | GKNNRPS | SSRMSSNFQVF the result was 2.04 (3 of 3 replicates; controls 4 of 9).
With EGDGLRYYYAN | GKNNRPS | SSRDSSGQQVW the result was 2.79 (3 of 3 replicates; controls 0 of 9).
With EGDSLRYYYCN | GKCNRPS | QSRDSSGFQVF the result was 4.41 (1 of 3 replicates; controls 5 of 9).
With EGDSLRYYYAN | SQNNRPS | SSRDTSGFQVF the result was 4.33 (1 of 3 replicates; controls 2 of 9).

Background: pairings of library AAYL52 with three empty control strains gave a value in 28% of cases (median 3.91, 5th percentile 2.90). Values in that range, when seen in few replicates, are hard to tell from nonspecific mating. Also given: how often the same scFv was detected with the empty control strains.